{"source": "paper PMC11390726", "about": "“Automated design of multi-target ligands by generative deep learning” (Nature Communications, 2024)", "origin": "cited, not measured here", "target": "AT1 (Homo sapiens, UniProt P30556)", "settings": "read-out: potency on target (IC50 for AT1); fine-tuning set; BindingDB; cited from earlier work", "data": [{"smiles": "CCCCc1nc(Cl)c(C(=O)O)n1Cc1ccc(-c2ccccc2-c2noc(=O)[nH]2)cc1", "values": [{"measurement": "IC50", "result": 2, "unit": "nM"}]}]}
